System: RPE cells
Assay: Post-thaw cell count and viability of RPE cells with or without albumin, trypan blue, Vi-CELL BLU
Type: cell-based
Details: especially when stored for up to 6 hours before freezing; Table 7
Protocol: RPE cells were pooled in a 225 mL bottle and washed with 200 mL of 0.5% rHA/DPBS by centrifugation at 500× g for 5 minutes. Washing was repeated 4 times in total.
RPE cells were resuspended with 2.5% rHA/0.09%Glucose/DPBS, followed by mixing with DMSO-containing buffer at a volume ratio of 1:1.
Thirty (30) μL of formulated RPE cells were added to Crystal Zenith® (CZ) vials (West Pharmaceutical Services, Inc. Exton, PA) and cryopreserved using a controlled rate freezer under different cryopreservation conditions, for example, different types of storage containers, different pre-freeze storage temperature, and different pre-freeze duration, as shown in Table 6. Vials were then transferred and stored in the vapor phase of liquid nitrogen.
Post-thaw cell viability was evaluated using the trypan blue method using Vi-CELL BLU Cell Viability Analyzer (Beckman Coulter, Inc., Indianapolis, IN).

albumin: recombinant human albumin, excipient of the formulations
Post-thaw viability with versus without albumin: stabilizing effect

Source: patent publication US20260043008A1, “CELL CRYOPRESERVATIVE FORMULATIONS AND METHODS OF USE” (ASTELLAS INSTITUTE FOR REGENERATIVE MEDICINE, priority 2022, published 2026)
